For 1 molecule, IC50 results are on record in patent publication US20230135524A1, “ARYL HYDANTOIN HETEROCYCLES AND METHODS OF USE” (The United States of America,as represented by the …, priority 2020, published 2023).

This assay concerns LNCaP ARF876L. The assay can be described thus: IncuCyte % confluence cell growth inhibition, LNCaP ARF876L. The class given is cell-based. The following applies: Homo sapiens, AR-positive, AR mutation F876L, % cell growth inhibition relative to DMSO.

Molecule `CNC(=O)c1ccc(N2C(=S)N(c3cnc(C#N)c(C(F)(F)F)c3)C(=O)C23CCC3)cc1F` [ARN509, reference compound] yielded an IC50 of 98.7 µM.

By IC50 is commonly meant the concentration that gives 50% inhibition.
